Like-named read-outs stand apart in the source and are kept apart here.
B1: LNA ssO (XNA)
DNA: CAGCTCCTCGCCCTTGCTCA
modifications: LNA bases (underlined positions lost in text); all phosphorothioate
B2: 32 nt ssO, non-biotinylated (ssDNA)
DNA: CGAACACCGGTACCCAGCTTTTGTTCCCTTTA
B3: 32 nt ssO 5'- and 3'-biotin (ssDNA)
DNA: B2 DNA
modifications: 5' and 3' biotin
B4: 32 nt ssO 5'-biotin (ssDNA)
DNA: B2 DNA
modifications: 5' biotin
B5: 32 nt ssO 3'-biotin (ssDNA)
DNA: B2 DNA
modifications: 3' biotin

How the values were obtained:
Assay in all cases: EMSA competition
[1] = biological target: T1, Ku heterodimer (Ku70/Ku80) (Homo sapiens, UniProt P12956;P13010 1-609;1-732)
[2] = biological target: T1, Ku heterodimer (Ku70/Ku80); remark: listed apart in the source
[3] = biological target: T1, Ku heterodimer (Ku70/Ku80); remark: listed apart in the source

Binder	binding result [3]	other results
B1	–	binding result [1]: binds
B2	–	binding result [2]: binds
B3	binds	–
B4	binds	–
B5	binds	–
